The test has as its target Prostaglandin G/H synthase 1 (Homo sapiens, UniProt P23219). In words: Inhibition of COX1. A digest of the protocol:
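Reaction in 100 mM Tris-HCl pH 8.0 containing 1 µM heme, 500 µM phenol and 300 µM epinephrine, with enough COX-1 to make 150 ng/ml PGE2. Started with arachidonic acid (10 µM final), 10 min at room temperature, stopped into indomethacin. PGE2 measured by ELISA against a PGE2 standard curve. Values are % of solvent control; IC50 from four serial dilutions, mean of two experiments.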

Chains of the proteins cited; added tags and fusions are not shown.
UniProt P23219, whole entry: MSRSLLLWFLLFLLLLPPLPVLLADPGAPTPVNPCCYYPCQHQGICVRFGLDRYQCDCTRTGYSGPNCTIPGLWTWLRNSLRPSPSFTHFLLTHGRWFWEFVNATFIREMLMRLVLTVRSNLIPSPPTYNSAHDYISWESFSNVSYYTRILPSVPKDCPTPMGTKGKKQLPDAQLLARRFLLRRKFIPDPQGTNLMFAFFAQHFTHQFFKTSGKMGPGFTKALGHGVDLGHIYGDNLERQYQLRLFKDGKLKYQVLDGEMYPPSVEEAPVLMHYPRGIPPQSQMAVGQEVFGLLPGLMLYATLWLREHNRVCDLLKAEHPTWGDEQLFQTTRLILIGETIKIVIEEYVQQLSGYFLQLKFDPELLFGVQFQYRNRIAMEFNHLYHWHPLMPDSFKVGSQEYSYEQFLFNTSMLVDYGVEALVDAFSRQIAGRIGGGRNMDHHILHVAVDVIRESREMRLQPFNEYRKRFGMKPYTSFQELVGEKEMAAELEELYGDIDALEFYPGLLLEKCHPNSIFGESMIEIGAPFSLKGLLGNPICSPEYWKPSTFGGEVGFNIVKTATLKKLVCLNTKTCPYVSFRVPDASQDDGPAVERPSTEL

The structures appear in SMILES notation.

The compound `Oc1ccc(/C=C/c2cc(O)cc(O)c2)cc1` [RESVERATROL] gave an IC50 of 830 nM.

These data come from ChEMBL document CHEMBL1140997, “Synthesis and biological evaluation of a library of resveratrol analogues as inhibitors of COX-1, COX-2 and NF-kappaB” (Bioorg Med Chem, 2009).
